# Columns and labels:
# Protein sequences, listed by entry. Tags and fused reporters are not part of them. Residues count along the entry.
# UniProt P11362, 22-822 limits assumed: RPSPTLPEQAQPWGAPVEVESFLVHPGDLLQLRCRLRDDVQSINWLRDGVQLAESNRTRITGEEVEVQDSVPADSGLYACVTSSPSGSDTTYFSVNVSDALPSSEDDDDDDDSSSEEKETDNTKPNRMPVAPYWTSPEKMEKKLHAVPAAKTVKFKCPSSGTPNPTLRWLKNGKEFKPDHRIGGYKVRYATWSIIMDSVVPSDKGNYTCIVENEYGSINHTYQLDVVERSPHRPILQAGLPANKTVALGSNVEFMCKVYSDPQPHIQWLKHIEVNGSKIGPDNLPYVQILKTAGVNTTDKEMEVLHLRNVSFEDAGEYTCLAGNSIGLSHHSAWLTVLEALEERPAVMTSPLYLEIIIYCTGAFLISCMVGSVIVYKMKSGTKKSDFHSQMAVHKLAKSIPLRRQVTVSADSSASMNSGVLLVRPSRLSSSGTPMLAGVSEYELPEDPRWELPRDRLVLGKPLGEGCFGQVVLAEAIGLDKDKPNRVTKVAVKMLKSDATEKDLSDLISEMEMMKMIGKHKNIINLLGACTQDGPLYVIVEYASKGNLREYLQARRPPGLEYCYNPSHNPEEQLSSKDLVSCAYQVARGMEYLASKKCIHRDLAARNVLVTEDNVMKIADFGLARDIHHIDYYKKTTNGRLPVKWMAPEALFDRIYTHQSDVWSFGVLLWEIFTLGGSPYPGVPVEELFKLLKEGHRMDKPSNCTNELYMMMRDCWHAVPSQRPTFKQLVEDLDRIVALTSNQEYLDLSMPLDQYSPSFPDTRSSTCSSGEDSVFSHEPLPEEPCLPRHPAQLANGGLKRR
# UniProt P29320, 21-983 limits assumed: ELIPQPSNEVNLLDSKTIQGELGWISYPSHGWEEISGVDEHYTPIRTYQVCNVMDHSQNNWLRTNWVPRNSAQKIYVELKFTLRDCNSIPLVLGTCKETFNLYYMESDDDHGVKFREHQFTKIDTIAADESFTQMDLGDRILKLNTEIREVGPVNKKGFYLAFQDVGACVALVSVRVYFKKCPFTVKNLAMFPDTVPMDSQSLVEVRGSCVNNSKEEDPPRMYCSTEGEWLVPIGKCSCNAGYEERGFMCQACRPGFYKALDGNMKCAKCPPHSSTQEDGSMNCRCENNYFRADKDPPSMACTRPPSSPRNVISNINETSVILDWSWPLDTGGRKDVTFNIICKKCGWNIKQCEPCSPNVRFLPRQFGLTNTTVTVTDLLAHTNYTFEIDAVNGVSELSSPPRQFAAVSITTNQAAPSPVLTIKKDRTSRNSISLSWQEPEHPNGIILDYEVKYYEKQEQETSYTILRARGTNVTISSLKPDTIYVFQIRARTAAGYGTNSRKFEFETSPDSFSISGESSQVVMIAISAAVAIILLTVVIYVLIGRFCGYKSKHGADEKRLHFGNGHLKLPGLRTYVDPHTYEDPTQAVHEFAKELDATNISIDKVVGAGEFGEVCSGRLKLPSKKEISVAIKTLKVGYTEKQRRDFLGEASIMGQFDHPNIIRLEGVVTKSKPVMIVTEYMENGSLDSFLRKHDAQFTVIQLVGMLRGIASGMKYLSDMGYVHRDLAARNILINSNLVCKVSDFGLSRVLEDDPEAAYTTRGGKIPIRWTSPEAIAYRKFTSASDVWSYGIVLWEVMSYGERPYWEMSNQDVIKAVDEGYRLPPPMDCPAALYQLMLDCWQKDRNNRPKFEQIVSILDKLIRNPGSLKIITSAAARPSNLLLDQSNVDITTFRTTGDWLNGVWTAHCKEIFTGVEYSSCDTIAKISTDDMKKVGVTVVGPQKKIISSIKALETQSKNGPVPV
# UniProt P29317, 24-976 limits assumed: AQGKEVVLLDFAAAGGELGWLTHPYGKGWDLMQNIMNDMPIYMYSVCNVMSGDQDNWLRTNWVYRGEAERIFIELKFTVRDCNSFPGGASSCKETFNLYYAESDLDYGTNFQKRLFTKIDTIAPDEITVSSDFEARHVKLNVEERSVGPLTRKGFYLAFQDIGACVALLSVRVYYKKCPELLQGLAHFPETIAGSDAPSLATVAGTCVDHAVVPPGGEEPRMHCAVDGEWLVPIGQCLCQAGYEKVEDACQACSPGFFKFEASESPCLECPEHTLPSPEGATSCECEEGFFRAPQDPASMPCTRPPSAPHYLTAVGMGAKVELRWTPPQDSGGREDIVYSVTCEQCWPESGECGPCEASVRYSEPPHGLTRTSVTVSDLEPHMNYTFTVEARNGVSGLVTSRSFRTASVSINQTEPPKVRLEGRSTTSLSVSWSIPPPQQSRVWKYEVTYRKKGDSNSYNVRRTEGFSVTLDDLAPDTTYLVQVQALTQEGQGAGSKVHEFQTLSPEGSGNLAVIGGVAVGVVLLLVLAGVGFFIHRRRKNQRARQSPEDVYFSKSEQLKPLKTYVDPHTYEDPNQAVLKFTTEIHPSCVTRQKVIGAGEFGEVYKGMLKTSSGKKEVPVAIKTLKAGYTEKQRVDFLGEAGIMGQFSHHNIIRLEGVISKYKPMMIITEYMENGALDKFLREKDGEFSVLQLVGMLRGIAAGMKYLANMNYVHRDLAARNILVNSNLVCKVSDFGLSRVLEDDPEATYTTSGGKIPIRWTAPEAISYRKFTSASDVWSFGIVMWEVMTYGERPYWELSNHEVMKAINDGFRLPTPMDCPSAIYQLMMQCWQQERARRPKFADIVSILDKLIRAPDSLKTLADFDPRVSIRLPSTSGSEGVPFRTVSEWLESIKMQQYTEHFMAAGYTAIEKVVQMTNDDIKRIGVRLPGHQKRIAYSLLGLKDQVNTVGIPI
# UniProt P29322, 28-1005 limits assumed: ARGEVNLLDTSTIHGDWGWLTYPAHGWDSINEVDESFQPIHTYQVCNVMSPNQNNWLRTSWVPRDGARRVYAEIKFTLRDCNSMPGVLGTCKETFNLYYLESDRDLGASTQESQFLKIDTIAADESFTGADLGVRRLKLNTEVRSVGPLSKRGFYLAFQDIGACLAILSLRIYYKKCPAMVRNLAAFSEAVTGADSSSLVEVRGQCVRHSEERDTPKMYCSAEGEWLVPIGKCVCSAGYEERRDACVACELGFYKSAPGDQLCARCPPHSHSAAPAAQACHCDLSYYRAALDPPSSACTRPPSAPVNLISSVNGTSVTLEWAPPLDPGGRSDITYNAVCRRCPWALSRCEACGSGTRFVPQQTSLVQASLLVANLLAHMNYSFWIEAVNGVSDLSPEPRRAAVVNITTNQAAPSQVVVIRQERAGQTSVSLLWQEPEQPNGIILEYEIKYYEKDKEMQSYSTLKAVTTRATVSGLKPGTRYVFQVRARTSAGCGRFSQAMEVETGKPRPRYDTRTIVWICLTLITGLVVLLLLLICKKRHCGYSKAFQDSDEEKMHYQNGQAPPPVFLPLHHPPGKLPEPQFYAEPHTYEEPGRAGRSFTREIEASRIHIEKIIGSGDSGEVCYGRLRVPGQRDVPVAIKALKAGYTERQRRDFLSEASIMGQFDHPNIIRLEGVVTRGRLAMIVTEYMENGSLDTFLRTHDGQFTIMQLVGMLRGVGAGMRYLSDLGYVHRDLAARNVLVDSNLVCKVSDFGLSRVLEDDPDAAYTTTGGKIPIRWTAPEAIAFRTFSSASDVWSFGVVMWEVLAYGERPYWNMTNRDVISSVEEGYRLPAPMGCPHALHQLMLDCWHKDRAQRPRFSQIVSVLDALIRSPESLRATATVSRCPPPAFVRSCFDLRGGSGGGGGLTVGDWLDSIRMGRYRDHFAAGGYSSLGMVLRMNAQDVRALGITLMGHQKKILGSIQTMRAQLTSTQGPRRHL
# UniProt P22455, 22-802 limits assumed: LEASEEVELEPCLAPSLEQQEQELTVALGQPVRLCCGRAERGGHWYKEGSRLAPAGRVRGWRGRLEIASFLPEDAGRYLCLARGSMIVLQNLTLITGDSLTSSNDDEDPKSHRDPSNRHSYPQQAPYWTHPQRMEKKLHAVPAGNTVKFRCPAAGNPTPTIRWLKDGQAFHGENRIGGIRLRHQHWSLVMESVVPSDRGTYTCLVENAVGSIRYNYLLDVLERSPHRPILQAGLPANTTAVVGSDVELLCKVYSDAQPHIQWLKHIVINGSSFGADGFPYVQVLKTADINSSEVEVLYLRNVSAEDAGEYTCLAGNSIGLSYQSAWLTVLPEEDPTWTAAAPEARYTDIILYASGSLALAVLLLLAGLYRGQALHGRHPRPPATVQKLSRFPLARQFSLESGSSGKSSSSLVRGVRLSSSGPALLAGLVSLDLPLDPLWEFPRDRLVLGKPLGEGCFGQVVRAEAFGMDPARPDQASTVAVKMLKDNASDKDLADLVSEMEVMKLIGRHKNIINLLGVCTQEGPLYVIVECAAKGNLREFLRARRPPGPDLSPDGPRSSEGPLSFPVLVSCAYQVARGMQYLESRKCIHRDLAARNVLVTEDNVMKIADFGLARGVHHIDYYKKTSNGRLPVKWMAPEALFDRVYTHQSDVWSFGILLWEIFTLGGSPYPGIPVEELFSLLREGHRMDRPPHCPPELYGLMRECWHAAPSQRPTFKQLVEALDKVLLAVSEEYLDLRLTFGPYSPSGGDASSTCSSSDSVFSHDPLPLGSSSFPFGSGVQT
# UniProt Q14164, whole entry: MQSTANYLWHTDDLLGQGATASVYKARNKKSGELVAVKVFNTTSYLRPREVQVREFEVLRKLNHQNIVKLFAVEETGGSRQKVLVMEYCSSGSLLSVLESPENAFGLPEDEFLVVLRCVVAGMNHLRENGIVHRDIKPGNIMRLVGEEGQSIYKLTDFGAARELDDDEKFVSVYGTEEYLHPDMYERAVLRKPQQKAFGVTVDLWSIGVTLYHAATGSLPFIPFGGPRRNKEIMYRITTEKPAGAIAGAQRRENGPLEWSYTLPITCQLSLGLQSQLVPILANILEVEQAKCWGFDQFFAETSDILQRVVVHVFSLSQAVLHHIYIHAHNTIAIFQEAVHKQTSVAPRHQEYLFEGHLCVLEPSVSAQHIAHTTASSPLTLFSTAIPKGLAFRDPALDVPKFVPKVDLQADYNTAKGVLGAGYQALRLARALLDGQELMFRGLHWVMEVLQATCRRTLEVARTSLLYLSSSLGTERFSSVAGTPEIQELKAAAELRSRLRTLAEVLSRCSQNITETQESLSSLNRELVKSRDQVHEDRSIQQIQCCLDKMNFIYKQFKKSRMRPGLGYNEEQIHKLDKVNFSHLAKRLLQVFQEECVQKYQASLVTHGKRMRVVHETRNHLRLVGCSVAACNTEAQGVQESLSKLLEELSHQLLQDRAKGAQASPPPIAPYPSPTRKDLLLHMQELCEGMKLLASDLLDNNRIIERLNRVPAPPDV
# UniProt Q07002, whole entry: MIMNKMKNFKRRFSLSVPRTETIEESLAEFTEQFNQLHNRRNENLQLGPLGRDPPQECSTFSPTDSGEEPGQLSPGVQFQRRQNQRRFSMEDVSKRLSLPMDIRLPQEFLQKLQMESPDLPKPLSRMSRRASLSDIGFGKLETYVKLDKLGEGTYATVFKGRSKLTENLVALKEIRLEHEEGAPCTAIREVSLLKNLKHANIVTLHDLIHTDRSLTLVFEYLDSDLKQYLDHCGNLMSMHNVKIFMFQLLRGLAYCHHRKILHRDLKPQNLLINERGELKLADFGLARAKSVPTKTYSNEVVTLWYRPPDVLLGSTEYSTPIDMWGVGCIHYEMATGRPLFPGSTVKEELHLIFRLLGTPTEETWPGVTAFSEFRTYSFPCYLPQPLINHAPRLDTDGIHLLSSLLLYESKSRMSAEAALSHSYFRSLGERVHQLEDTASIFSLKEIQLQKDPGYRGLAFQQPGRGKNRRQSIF
# UniProt Q9UEE5, whole entry: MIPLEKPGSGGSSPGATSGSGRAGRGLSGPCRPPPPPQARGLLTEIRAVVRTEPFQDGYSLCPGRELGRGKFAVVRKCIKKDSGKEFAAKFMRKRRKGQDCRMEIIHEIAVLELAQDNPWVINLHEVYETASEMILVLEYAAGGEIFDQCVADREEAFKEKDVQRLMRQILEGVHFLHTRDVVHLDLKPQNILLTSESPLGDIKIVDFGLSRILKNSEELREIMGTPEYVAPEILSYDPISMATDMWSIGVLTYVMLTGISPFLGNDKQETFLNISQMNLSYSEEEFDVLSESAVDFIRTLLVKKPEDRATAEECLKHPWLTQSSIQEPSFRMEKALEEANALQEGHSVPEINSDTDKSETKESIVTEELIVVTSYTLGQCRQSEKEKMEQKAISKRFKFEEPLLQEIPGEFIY
# UniProt O00142, 34-265 limits assumed: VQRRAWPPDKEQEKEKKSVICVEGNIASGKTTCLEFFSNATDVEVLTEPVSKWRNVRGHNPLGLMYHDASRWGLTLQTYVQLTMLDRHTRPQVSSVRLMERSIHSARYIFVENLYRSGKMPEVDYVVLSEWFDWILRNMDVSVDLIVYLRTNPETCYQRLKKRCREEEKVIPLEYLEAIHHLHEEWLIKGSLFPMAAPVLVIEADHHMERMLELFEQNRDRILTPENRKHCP
# UniProt P22392, whole entry: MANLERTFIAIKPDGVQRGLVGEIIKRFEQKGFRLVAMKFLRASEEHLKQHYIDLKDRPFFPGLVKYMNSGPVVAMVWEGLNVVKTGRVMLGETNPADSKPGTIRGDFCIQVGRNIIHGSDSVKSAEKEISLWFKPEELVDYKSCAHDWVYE
# EPHA1 = EPHA1 (Homo sapiens, UniProt P21709); test: NanoBRET kinase panel (CELLinib); conditions: whole-cell NanoBRET
# FGFR1 = FGFR1 (Homo sapiens, UniProt P11362); test: NanoBRET kinase panel (CELLinib); conditions: whole-cell NanoBRET
# EPHA3 = EPHA3 (Homo sapiens, UniProt P29320); test: NanoBRET kinase panel (CELLinib); conditions: whole-cell NanoBRET
# EPHB2 = EPHB2 (Homo sapiens, UniProt P29323); test: NanoBRET kinase panel (CELLinib); conditions: whole-cell NanoBRET
# EPHA2 = EPHA2 (Homo sapiens, UniProt P29317); test: NanoBRET kinase panel (CELLinib); conditions: whole-cell NanoBRET
# KDR = KDR (Homo sapiens, UniProt P35968); test: NanoBRET kinase panel (CELLinib); conditions: whole-cell NanoBRET
# PIK3CA = PIK3CA (Homo sapiens, UniProt P42336); test: NanoBRET kinase panel (CELLinib); conditions: whole-cell NanoBRET
# EPHA8 = EPHA8 (Homo sapiens, UniProt P29322); test: NanoBRET kinase panel (CELLinib); conditions: whole-cell NanoBRET
# EGFR [1] = target: T1, EGFR (Homo sapiens, UniProt P00533); test: NanoBRET kinase panel (CELLinib); conditions: whole-cell NanoBRET
# EPHB4 = EPHB4 (Homo sapiens, UniProt P54760); test: NanoBRET kinase panel (CELLinib); conditions: whole-cell NanoBRET
# SRC = SRC (Homo sapiens, UniProt P12931); test: NanoBRET kinase panel (CELLinib); conditions: whole-cell NanoBRET
# EPHA4 [2] = target: T2, EPHA4 (Homo sapiens, UniProt P54764); test: NanoBRET kinase panel (CELLinib); conditions: whole-cell NanoBRET
# [3] = In vivo tolerability, monotherapy, female SCID mice; conditions: 300 mg/kg BID oral
# NEK3 = NEK3 (Homo sapiens, UniProt P51956); test: KAT chemical proteomics
# PLK1 = PLK1 (Homo sapiens, UniProt P53350); test: KAT chemical proteomics
# FGFR4 = FGFR4 (Homo sapiens, UniProt P22455); test: KAT chemical proteomics
# TAOK2 = TAOK2 (Homo sapiens, UniProt Q9UL54); test: KAT chemical proteomics
# SMG1 = SMG1 (Homo sapiens, UniProt Q96Q15); test: KAT chemical proteomics
# PIK3C2B = PIK3C2B (Homo sapiens, UniProt O00750); test: KAT chemical proteomics
# GAK = GAK (Homo sapiens, UniProt O14976); test: KAT chemical proteomics
# EPHB3 = EPHB3 (Homo sapiens, UniProt P54753); test: KAT chemical proteomics
# IKBKE = IKBKE (Homo sapiens, UniProt Q14164); test: KAT chemical proteomics
# MAPK11 = MAPK11 (Homo sapiens, UniProt Q15759); test: KAT chemical proteomics
# RAF1 = RAF1 (Homo sapiens, UniProt P04049); test: KAT chemical proteomics
# CDK18 = CDK18 (Homo sapiens, UniProt Q07002); test: KAT chemical proteomics
# SYK = SYK (Homo sapiens, UniProt P43405); test: KAT chemical proteomics
# CCNK = test: KAT chemical proteomics
# STK17A = STK17A (Homo sapiens, UniProt Q9UEE5); test: KAT chemical proteomics
# LIMK1 = LIMK1 (Homo sapiens, UniProt P53667); test: KAT chemical proteomics
# MAP2K4 = MAP2K4 (Homo sapiens, UniProt P45985); test: KAT chemical proteomics
# EGFR [4] = target: T1, EGFR; test: KAT chemical proteomics
# FES = FES (Homo sapiens, UniProt P07332); test: KAT chemical proteomics
# AK2 = AK2 (Homo sapiens, UniProt P54819); test: KAT chemical proteomics
# TK2 = TK2 (Homo sapiens, UniProt O00142); test: KAT chemical proteomics
# NME2 = NME2 (Homo sapiens, UniProt P22392); test: KAT chemical proteomics
# CKMT1A = CKMT1A (Homo sapiens, UniProt P12532); test: KAT chemical proteomics
# PRKCQ = PRKCQ (Homo sapiens, UniProt Q04759); test: KAT chemical proteomics
# EPHA4 [5] = target: T2, EPHA4; test: KAT chemical proteomics
# PKM = PKM (Homo sapiens, UniProt P14618); test: KAT chemical proteomics
# INSR = INSR (Homo sapiens, UniProt P06213); test: KAT chemical proteomics
# TYK2 = TYK2 (Homo sapiens, UniProt P29597); test: KAT chemical proteomics
smiles,measurement,setting,value
"Cc1nc(C(F)(F)F)c2c(C(N)=O)c(N)n(-c3c(C)ccc(O)c3C)c2n1 (single isomer, unassigned)",IC50,EPHA1,3.17 µM
same,IC50,FGFR1,> 50 µM
same,IC50,EPHA3,8.1 µM
same,IC50,EPHB2,10.9 µM
same,IC50,EPHA2,6.83 µM
same,IC50,KDR,> 50 µM
same,IC50,PIK3CA,48.5 µM
same,IC50,EPHA8,33.4 µM
same,IC50,EGFR [1],> 50 µM
same,IC50,EPHB4,13.4 µM
same,IC50,SRC,> 50 µM
same,IC50,EPHA4 [2],16.1 µM
same,"body weight loss, paw or tail swelling, adverse events","[3]; 28 days, SCID mice","No significant loss of body weight, paw or tail swelling, or other noticeable adverse events"
same,free Cmax,[3]; female SCID mice,approximately 21 μM
same,RB50,NEK3,>50 µM
same,RB50,PLK1,>50 µM
same,RB50,FGFR4,>50 µM
same,RB50,TAOK2,>50 µM
same,RB50,SMG1,>50 µM
same,RB50,PIK3C2B,>50 µM
same,RB50,GAK,>50 µM
same,RB50,EPHB3,114 nM
same,RB50,IKBKE,>50 µM
same,RB50,MAPK11,>50 µM
same,RB50,RAF1,>50 µM
same,RB50,CDK18,>50 µM
same,RB50,SYK,>50 µM
same,RB50,CCNK,4.47 µM
same,RB50,STK17A,>50 µM
same,RB50,LIMK1,>50 µM
same,RB50,MAP2K4,>50 µM
same,RB50,EGFR [4],>50 µM
same,RB50,FES,>50 µM
same,RB50,AK2,>50 µM
same,RB50,TK2,>50 µM
same,RB50,NME2,>50 µM
same,RB50,CKMT1A,>50 µM
same,RB50,PRKCQ,>50 µM
same,RB50,EPHA4 [5],324 nM
same,RB50,PKM,>50 µM
same,RB50,INSR,>50 µM
same,RB50,TYK2,>50 µM

# Reference: patent publication US20260384438A1, “PYRROLOPYRIMIDINE CARBOXAMIDES” (published 2026)
